# Measurements as given in PMC5080983 (Nature communications, 2015).
# Tested on: KDM5A1–797
# Experiment: Demethylation of methylated H3K4 peptides as substrates
# Type: biochemical
# Conditions: H3K4me3/2/1 peptides aa 1–18
substance,measurement,value
H3K4me3: H3 tail peptide (aa 1–18) in which Lys4 is tri-methylated,demethylation as substrate (in words),preference
